Screening results from PubChem BioAssay.
DSG3 Ab inh: blocks pemphigus antibody binding to human desmoglein-3; DSG3-coupled beads, scFv-anti-DSG3-GFP binding, flow cytometry; stronger effect = lower value; hit rate 0.48% among 310,000; binding (percent of control), % at 10 µM; P32926; AID 588358;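 active = binding more than 3 SD below its plate's average and above zero; inconclusive = below that plate limit but binding exactly zero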
PABP polyA inh: blocks human PABP binding to poly(A) RNA. P11940. fluorescence polarization. calls only at 35 µM. hit rate 1% among 290,000;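 also: calls also rest on retests at 20 µM and on dose response follow-up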
Yeast UUG start: modulators of yeast start codon fidelity, primary screen, whole organism, S. cerevisiae, single point, plate reader. S. cerevisiae UUG-firefly luciferase reporter, luminescence/redox ratio. activity score, % at 18.7 µM. 350,000 tested, 0.13% active;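 active = replicate mean at a twofold rise or more, about +100% in these data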;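 also: firefly luciferase made from a UUG start codon reports start codon fidelity; reporter light over untreated wells divided by growth signal over untreated wells; some hits fall short of that in this replicate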
eIF4H inh: inhibitors of RNA binding by human eIF4H. eIF4H fluorescence polarization binding assay. hit rate 0.94% among 290,000. Q15056. inhibition, % at 35 µM;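 also: calls also rest on retests at 20 µM and on dose response follow-up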
MLLE-PAM2 inh: blocks PAM2 peptide binding to the PABP1 MLLE domain. P11940. GST-MLLE / FITC-PAM2 fluorescence polarization. inhibition, % at 20 µM. hit rate 0.36% among 360,000; in the data active = inhibition above about 35%, passing the limit was not always enough
A number is an active result; - = inactive; ? = inconclusive; . = not tested or not shown; + = active, no number; ! = repeats disagree. The list is not random: actives were taken first. Their share in the collection is about 1.5%. Unless noted, no rule for the calls is given here.

SMILES	DSG3 Ab inh	PABP polyA inh	Yeast UUG start	eIF4H inh	MLLE-PAM2 inh
O=C(C[C@H]1CC[C@@H]2[C@H](COC[C@@H](O)CN2S(=O)(=O)c2ccc(Cl)cc2)O1)NCc1ccc(Cl)c(Cl)c1	.	.	-	.	.
CN(C)C(=O)c1cccc(-c2ccc([C@@H]3[C@@H](C#N)N(C(=O)C4CCCCC4)[C@@H]3CO)cc2)c1	.	.	-	.	.
CCOc1ccc(C(=O)CCNC(Cc2cnc[nH]2)C(=O)O)cc1 (configuration not stated)	-	-	-	-	-
CCOc1ccc(S(=O)(=O)NC(Cc2cnc[nH]2)C(=O)O)cc1 (configuration not stated)	8.8	-	.	-	-
Cc1c(Cl)ccc2c(C(N)=O)cc(-c3ccccn3)nc12	-	-	.	-	-
Cc1cc(C)c2nc(-c3ccccn3)cc(C(=O)n3cccn3)c2c1	-	+	.	-	-
COc1cc2c(cc1OC)CN(C(=O)COc1ccc(C#N)cc1)CC2	-	+	-	6.8	-
COc1cc2c(cc1OC)CN(C(=O)CC1CC3CCC1C3)CC2 (configuration not stated)	-	-	-	-	-
COc1cc2c(cc1OC)CN(C(=O)CCN1C(=O)C3CCCCC3C1=O)CC2 (configuration not stated)	-	+	.	6.2	-
COc1ccc(/C=C/C(=O)OCC(=O)Nc2ncc(Cl)cc2Cl)cc1	-	.	-	.	-
COc1ccc(OCCCC(=O)OCC(=O)Nc2ncc(Cl)cc2Cl)cc1	-	.	-	.	45.4
O=C(COC(=O)c1ccccc1NC(=O)c1ccco1)Nc1ncc(Cl)cc1Cl	-	-	-	-	-
O=C(COC(=O)c1ccccc1O)Nc1ncc(Cl)cc1Cl	-	+	-	-	-
COc1ccc(S(=O)(=O)N(C)C[C@@H]2Oc3ccc(NS(=O)(=O)c4ccccc4)cc3C(=O)N([C@H](C)CO)C[C@@H]2C)cc1	.	.	-	.	.
C[C@@H]1CN([C@@H](C)CO)C(=O)c2cc(NC(=O)c3ccccc3)ccc2O[C@@H](C)CCCCO[C@@H]1CN(C)S(=O)(=O)c1ccc(Cl)cc1	.	.	-	.	.
Cc1onc(-c2ccccc2)c1C(=O)NC(=S)NNC(=O)c1ccncc1	-	-	-	-	41.6
Cc1onc(-c2ccccc2)c1C(=O)NC(=S)NNC(=O)c1cccnc1	-	-	-	-	-
O=C(CSc1ccccc1)N/N=C/c1ccccc1O	-	-	.	-	-
COc1ccc(CSCC(=O)N/N=C/c2ccccc2O)cc1	53.2	-	.	-	-
Cc1ccc(NC(=O)COc2ccc(/C=N/NC(=O)CSCc3ccccc3)cc2)cc1	80.7	-	-	-	-
Cc1ccc(NC(=O)COc2ccc(/C=C3/SC(=Nc4ccccc4)N(Cc4cccnc4)C3=O)cc2)cc1	-	+	.	58.0	-
O=C(CSCc1ccc(Cl)cc1)N/N=C/c1ccc(OCC(=O)Nc2ccccc2)cc1	-	-	-	-	-
C[C@@H]1CN([C@H](C)CO)C(=O)c2cccc(NC(=O)C3CC3)c2O[C@@H]1CN(C)S(=O)(=O)c1cn(C)cn1	.	.	-	.	.
CO[C@@H]1CN(C)C(=O)c2ccc(NC(C)=O)cc2OC[C@H](C)N(Cc2ccccn2)C[C@H]1C	.	.	-	.	.
O=C(Cn1nnc2ccccc21)c1ccc(Br)cc1	13.0	-	-	-	-
SMILES	DSG3 Ab inh	PABP polyA inh	Yeast UUG start	eIF4H inh	MLLE-PAM2 inh
Cc1ccc(C(=O)Cn2nnc3ccccc32)cc1	-	?	-	?	-
Cc1ccc(S(=O)(=O)NC2=C(N3CCN(c4ccccc4F)CC3)C(=O)c3ccccc3C2=O)cc1	-	-	-	-	37.7!
Cc1ccc(S(=O)(=O)NC2=C(N3CCN(Cc4ccccc4)CC3)C(=O)c3ccccc3C2=O)cc1	-	-	-	-	-
CNC(=O)Cn1ncc2c(C)n(Cc3ccc(C)cc3)c(C)c2c1=O	-	-	-	-	-
Cc1c2cnn(CC(=O)Nc3c(F)c(F)cc(F)c3F)c(=O)c2c(C)n1Cc1ccccc1F	-	+	.	94.9	-
CCN(C(=O)Nc1ccccc1)c1ccccc1	-	-	-	-	-
C#CCN(C(=O)Nc1ccccc1)c1ccccc1	-	+	-	3.2	-
CCc1cc2ccc(C)cc2nc1SCC(=O)Nc1cc(C)on1	-	-	.	-	-
CCc1cc2cc3c(cc2nc1SCC(=O)Nc1cc(C)on1)OCO3	87.5	-	-	-	-
C[C@@H]1CN([C@H](C)CO)S(=O)(=O)c2ccc(C#CCN(C)C)cc2O[C@H]1CN(C)Cc1ccccc1	.	.	-	.	.
O=C1NC(=S)CN1c1ccccc1	-	-	.	-	56.8
CCNc1ccc(Br)cc(C(=O)/C=C/c2ccc3c(c2)OCO3)c1=O	-	+	-	78.5	-
CNc1ccc(Br)cc(C(=O)/C=C/c2cccc(OC)c2)c1=O	-	+	-	80.5	-
COc1cc(/C=C2\CCCc3c2nc2ccccc2c3C(=O)O)cc(OC)c1O	-	-	-	-	-
COc1cc(/C=C2\CCCc3c2nc2ccccc2c3C(=O)O)cc([N+](=O)[O-])c1O	-	+	-	79.5	-
O=C(c1ccccc1F)N1C[C@@H]2[C@H](c3ccccc31)[C@H](CO)N2C(=O)c1cccnc1	.	.	-	.	.
CCN1/C(=C/c2ccc3cc(C)ccc3[n+]2C)Sc2ccc3sccc3c21	3.0	-	-	-	-
CCC(=O)NC(=S)Nc1c(C)cc(Br)cc1C	-	-	.	-	43.6
CCCC(=O)NC(=S)Nc1c(C)cc(Br)cc1C	-	.	-	.	-
CC1CCc2c(sc(NC(=O)c3ccc(Cn4cc([N+](=O)[O-])cn4)o3)c2C#N)C1 (configuration not stated)	-	+	-	76.0	-
O=C(NNS(=O)(=O)c1ccc([N+](=O)[O-])cc1)C(=O)Nc1cccc(C(=O)O)c1	-	-	-	59.8	-
O=C(N/N=C/c1cccc(OCc2ccccc2)c1)c1cccs1	-	-	-	-	-
COC(=O)c1ccc(COc2ccc(/C=N/Nc3cccc(C(=O)O)c3)cc2)cc1	-	+	.	75.3	-
O=C(O)c1ccc(COc2ccc(/C=N/NC(=O)c3cccs3)cc2)cc1	-	+	-	-	-
N#C/C(=C/c1ccc(OCc2ccc(C(=O)O)cc2)cc1)C(=O)Nc1ccccc1	-	+	-	-	-
SMILES	DSG3 Ab inh	PABP polyA inh	Yeast UUG start	eIF4H inh	MLLE-PAM2 inh
O=C(O)c1cccc(N/N=C/c2ccc(OC(F)(F)F)cc2)c1	-	-	-	-	-
N#C/C(=C\c1ccc(OCc2ccc(Br)cc2)cc1)C(=O)Nc1cccc(C(=O)O)c1	-	-	-	-	-
CCNC(=O)[C@H]1[C@H](CO)[C@H]2Cn3c(ccc(-c4ccccc4F)c3=O)[C@@H]1N2CC1CC1	.	.	-	.	.
CSc1ccc(CNC(=O)Cc2ccc(NC(=O)C3=C(C)OCCS3)cc2)cc1	54.0	-	-	-	-
CCCCOC(=O)c1ccc(N)cc1	-	+	-	active	-
CCCCCCOC(=O)c1ccc(N)cc1	-	-	-	-	-
CCN1C(=O)CC(C(=O)NCCc2ccc(S(N)(=O)=O)cc2)SC1=Nc1ccc(OC)cc1 (configuration not stated)	-	+	-	active	-
